The nature of the data set: solubility of sodium valproate in water. Particulars: applicant's experiments.

This is an account of results in patent US11433038B2, “High concentration medicant solutions for treating neurological disorders” (Cerebral Therapeutics, Inc., priority 2017, dated 2022).

`CCCC(CCC)C(=O)[O-].[Na+]` [sodium valproate]: the “fully dissolves and forms clear, homogeneous aqueous solutions up to at least” value was “at least 500 mg/mL”.
